Assay outcomes from PubChem.
In the library only some 2.8% were active in any assay of this set; here they are far more common.
UUG fidelity: yeast start codon fidelity modulation. S. cerevisiae UUG-firefly luciferase reporter, luminescence/redox ratio. activity score, % at 18.7 µM. 0.13% of 350,000 active;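 active means replicate mean at a twofold rise or more, about +100% in these data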;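 further: firefly luciferase made from a UUG start codon reports start codon fidelity; reporter light over untreated wells divided by growth signal over untreated wells; some hits fall short of that in this replicate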
PglD DTNB: PglD (C. jejuni) enzyme inhibition; AID 602405; purified PglD enzyme, DTNB colorimetric CoA detection; inhibition, % at 12.5 µM; 360,000 compounds, 0.098% hits; in the data active = inhibition above about 16%, passing the limit was not always enough; inconclusive = no clear call, values can overlap the other calls
esBAF inh: SWI/SNF esBAF complex inhibition; mouse ES cells, Bmi1-luciferase knock-in reporter, 24 h; 100% = twice the neutral-well signal; reporter increase, % at 12.5 µM; 350,000 compounds, 2% hits; in the data active = activation above about 40%; inconclusive = no clear call, values can overlap the other calls;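 also: 0% = median of the plate's neutral control wells and 100% = double that signal; a rise in the Bmi1 reporter signal indicates esBAF inhibition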
Wnt act: activates Wnt/beta-catenin signaling in a reporter cell assay; 300,000 compounds, 1.2% hits; activator, plate reader; activation, % at 9.35 µM; in the data active = activation above about 30%, passing the limit was not always enough; inconclusive = no clear call, values can overlap the other calls;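 also: 0% = neutral control wells and 100% = positive control wells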
MITF TRPM1 HTS: increases MITF-driven TRPM1 promoter luciferase signal. SK-MEL-5 TRPM1-promoter luciferase, 24 h; % of positive control, neutral wells = 0. activation, % at 12.5 µM. 300,000 compounds, 0.75% hits. AID 588334;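 active = mean activation of at least 80% with every replicate also reaching 80%; inconclusive = mean reaches 80% but some replicate falls short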;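 also: 0% = neutral control wells and 100% = parthenolide positive control wells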
miR122 inh: miR-122 inhibition in Huh7 cells | 340,000 compounds, 0.3% hits | Huh7 miR-122 Renilla luciferase sensor, 48 h; neutral wells = 0, positive control = 100 | AID 602342 | activation (reporter increase), % at 12.5 µM;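 active = mean replicate activation score at least 90 and every replicate individually at or above 90; inconclusive = only one of the two criteria met; inactive = neither criterion met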;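 also: higher luciferase means less miR-122 activity so hits act as miR-122 inhibitors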
* = called active by the depositor; ? = inconclusive; . = not tested or not shown; [ ] = another dose, or the depositor's remark.

UUG fidelity,PglD DTNB,esBAF inh,Wnt act,MITF TRPM1 HTS,miR122 inh,structure
-11.8,2.2,33.6,-6.2,5.8,279.4*,O=[N+]([O-])c1cc(S(=O)(=O)Nc2ccc(Cl)cc2)ccc1N/N=C/c1ccncc1
1.6,-7.5,1.9,-1.0,8.8,1.8,O=[N+]([O-])c1ccc(Cl)cc1N/N=C/c1ccncc1
-4.8,0.6,7.0,-1.9,5.9,?,COc1ccc(NS(=O)(=O)c2cc(NC(=O)Cc3c(F)cccc3Cl)ccc2OC)cc1
-5.8,1.8,54.9*,19.1,99.4*,.,COc1ccc(NC(C)=O)cc1S(=O)(=O)Nc1ccccc1C(=O)NCCc1ccccc1
-9.3,6.1,9.9,2.4,7.6,332.0*,COc1ccc(NC(=O)Cc2cccc(F)c2)cc1S(=O)(=O)Nc1ccccc1Cl
-17.1,-1.6,53.0*,28.6,40.9,4.3,Cc1csc2nc(CCNS(=O)(=O)c3cccs3)cn12
-39.1,0.1,-5.1,67.5*,5.2,5.2,Cc1nc(-c2ccccc2)nc2[nH]c(C(C)C)cc(=O)c12
-9.1,-0.8,42.9*,?,.,-16.0,Cc1nc(-c2ccccc2)nc2[nH]c(=O)n(-c3ccccc3)c(=O)c12
-18.5,-0.9,-3.9,.,.,-5.0[16.7 µM],Cc1noc(C)c1NC(=O)N(C)C[C@H]1Oc2ccc(NC(=O)NC3CCCCC3)cc2C(=O)N([C@@H](C)CO)C[C@H]1C
-2.9,2.3,68.7*,27.3,93.7*,-8.7,Cc1cc(CNC(=O)c2ccc3nc(Cc4ccccc4F)oc3c2)nn1C
8.8,1.9,0.1,.,.,3.3[16.7 µM],O=C(C[C@@H]1C[C@@H]2c3cc(NC(=O)CC4CC4)ccc3O[C@@H]2[C@@H](CO)O1)NCCc1ccccc1
-17.9,5.3,-1.5,-1.0,-6.9,5.5,COC(=O)c1ccc(NC(=O)CCc2c(C)nc3ncnn3c2C)cc1
-26.2,-0.7,47.7*,26.3,33.2,-7.4,CCc1c(C)nc2ncnn2c1Nc1ccc(C(C)=O)cc1
-5.7,3.0,47.6*,23.5,17.4,24.1,CC(=O)c1ccc(NC(=O)CCc2c(C)nc3ncnn3c2C)cc1
-15.6,-6.1,48.7*,0.0,90.7*,-5.8,C(=NOCCc1ccccc1)c1ccncc1
-17.7,-0.8,8.5,0.1,-0.8,.,C(=N\N=C\c1ccccn1)/c1ccccn1
-9.3,-1.8,95.2*,7.5,46.4,.,C(=NOCCc1ccccc1)c1ccccn1
8.6,0.9,7.7,.,.,2.4[16.7 µM],CO[C@H]1CN(C)C(=O)c2cc(NC(=O)C3CC3)ccc2OC[C@@H](C)N(C(=O)C2CCCCC2)C[C@H]1C
-27.0,-7.1,10.6,-0.8,.,.,Cc1cc(S(=O)(=O)NCCCn2ccnc2)c(C)cc1Cl
-18.0,-0.3,-3.4,0.4,.,128.8*,Cc1cc(C)c(S(=O)(=O)NCCCn2ccnc2)cc1C

A draw from above in order of count of non-hydrogen atoms, low to high:
UUG fidelity,PglD DTNB,esBAF inh,Wnt act,MITF TRPM1 HTS,miR122 inh,structure
-9.3,-1.8,95.2*,7.5,46.4,.,C(=NOCCc1ccccc1)c1ccccn1
1.6,-7.5,1.9,-1.0,8.8,1.8,O=[N+]([O-])c1ccc(Cl)cc1N/N=C/c1ccncc1
-11.8,2.2,33.6,-6.2,5.8,279.4*,O=[N+]([O-])c1cc(S(=O)(=O)Nc2ccc(Cl)cc2)ccc1N/N=C/c1ccncc1
-18.5,-0.9,-3.9,.,.,-5.0[16.7 µM],Cc1noc(C)c1NC(=O)N(C)C[C@H]1Oc2ccc(NC(=O)NC3CCCCC3)cc2C(=O)N([C@@H](C)CO)C[C@H]1C

The list continues.
UUG fidelity,PglD DTNB,esBAF inh,Wnt act,MITF TRPM1 HTS,miR122 inh,structure
-0.8,.,.,.,-5.1,107.3*,O=S(=O)(NCCOCC(F)(F)C(F)F)c1ccc2oc3ccccc3c2c1
-4.3,7.0,-19.3,0.6,-23.6,44.0,COc1ccc(C2=Nn3c(nnc3-c3ccccc3F)SC2)cc1OC1CCOC1 (stereo unspecified)
-16.5,-2.0,11.3,35.7*,2.7,-1.1,COc1ccc(C2=Nn3c(nnc3-c3ccccc3F)SC2)cc1OC1CCCC1
.,-3.4,-3.9,.,.,.,O=C(NCC1CC1)[C@@H]1[C@@H](CO)[C@@H]2Cn3c(cccc3=O)[C@@H]2N1Cc1cncnc1
-13.1,5.3,20.7,.,84.4*,3.6,COc1cccc(C(=O)O/N=C(\N)c2ccc([N+](=O)[O-])cc2)c1OC
0.1,7.4,.,70.4*,41.2,-5.8,COc1ccccc1C(=O)O/N=C(\N)c1ccccc1Cl
-3.4,-178.4,.,37.9*,65.7,.,O=C(COc1ccc(F)cc1)Nc1ccc2c(c1)OCCO2
-0.9,3.5,-3.8,.,-1.7,111.8*,CC(C)(C)NS(=O)(=O)c1ccc(OCC(=O)Nc2ccc3c(c2)OCCO3)cc1
-7.4,4.4,46.6*,-2.9,33.5,-3.6,COc1cccc(OCc2nc3ccccc3c(=O)n2N)c1
-12.4,-2.0,-2.1,.,.,0.5[16.7 µM],O=C(O)C[C@H]1C[C@H]2c3cc(NC(=O)Nc4ccccc4)ccc3O[C@H]2[C@@H](CO)O1
-11.3,3.5,63.7*,28.3,43.3,.,COc1ccc(-c2ccc3oc(-c4ccsc4)cc3c2)cc1
-22.3,1.4,49.5*,27.8,74.9,0.9,CCSc1ccc(-c2cccc([N+](=O)[O-])c2)nn1
